In patent US6066642A, “Dihydropyridine-, pyridine-, benzopyran-4-one- and triazoloquinazoline derivative, their preparation and their use as adenosine receptor antagonists” (priority 1998, dated 2000):
Like-named read-outs stand apart in the source and are kept apart here.

Protein sequences, listed by entry. Tags and fused reporters are not part of them.
UniProt P0DMS8, whole entry: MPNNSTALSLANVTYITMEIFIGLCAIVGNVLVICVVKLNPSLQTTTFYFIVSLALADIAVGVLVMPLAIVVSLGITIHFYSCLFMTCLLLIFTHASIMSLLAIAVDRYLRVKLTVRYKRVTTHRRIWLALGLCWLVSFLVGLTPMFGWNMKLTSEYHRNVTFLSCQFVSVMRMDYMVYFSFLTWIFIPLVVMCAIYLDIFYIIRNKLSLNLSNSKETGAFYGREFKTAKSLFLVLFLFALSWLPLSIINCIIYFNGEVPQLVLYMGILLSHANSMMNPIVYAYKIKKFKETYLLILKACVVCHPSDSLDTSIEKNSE
UniProt P30543, whole entry: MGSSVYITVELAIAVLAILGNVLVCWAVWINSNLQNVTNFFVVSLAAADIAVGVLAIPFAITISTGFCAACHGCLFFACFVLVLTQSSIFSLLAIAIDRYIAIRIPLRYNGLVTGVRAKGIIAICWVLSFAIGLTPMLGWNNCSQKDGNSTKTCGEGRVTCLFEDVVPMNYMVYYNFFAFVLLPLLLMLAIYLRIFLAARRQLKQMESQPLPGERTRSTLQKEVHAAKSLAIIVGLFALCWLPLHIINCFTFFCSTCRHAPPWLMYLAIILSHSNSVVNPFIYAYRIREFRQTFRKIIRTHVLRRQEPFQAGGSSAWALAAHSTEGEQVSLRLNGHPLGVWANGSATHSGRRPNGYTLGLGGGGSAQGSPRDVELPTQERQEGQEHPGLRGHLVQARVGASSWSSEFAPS
UniProt P25099, whole entry: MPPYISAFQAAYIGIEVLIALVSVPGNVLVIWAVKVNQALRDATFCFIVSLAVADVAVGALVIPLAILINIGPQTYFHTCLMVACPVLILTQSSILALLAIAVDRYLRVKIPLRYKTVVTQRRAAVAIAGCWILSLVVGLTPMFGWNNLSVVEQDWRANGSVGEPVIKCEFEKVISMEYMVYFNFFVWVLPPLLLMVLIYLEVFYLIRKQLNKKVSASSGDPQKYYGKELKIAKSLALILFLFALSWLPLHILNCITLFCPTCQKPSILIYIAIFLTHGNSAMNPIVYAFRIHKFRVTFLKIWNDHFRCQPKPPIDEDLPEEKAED

Legend:
[1] = molecular target: T1, human A3 receptors (Homo sapiens, UniProt P0DMS8); test: radioligand binding, displacement of specific [125I]AB-MECA binding at human A3 receptors expressed in HEK-293 cells; settings: Table 3, HEK-293 membranes, read-out: Ki hA3
T1 construct: expressed in transfected cells; host or cells: HEK-293 cells (membranes)

[2] = molecular target: T2, A2a receptors (Rattus norvegicus, UniProt P30543); test: radioligand binding, displacement of specific [3H]CGS 21680 binding in rat striatal membranes; settings: [3H]CGS 21680, rat striatal membranes
T2 construct: Displacement of specific [^3 H]; from tissue; host or cells: rat striatal membranes

[3] = molecular target: A1 receptors (Rattus norvegicus, UniProt P25099); test: biochemical; assay type: binding

COc1ccc(-c2oc3cc(OC)cc(OC)c3c(=O)c2OC)c(OC)c1 [Compound 6, 2',3,4',5,7-Pentamethyloxyflavone]
Ki [1]: 2.65 µM
Ki ([2]; Table 3, read-out: Ki rA2a): 46.7 ± 2.7 µM
Ki ([3]; Table 3, [3H]PIA, rat brain membranes, read-out: Ki rA1): 27.6 ± 7.5 µM

O=C(CCc1ccccc1)Nc1nc2ccc(Cl)cc2c2nc(-c3ccco3)nn12 [Compound 160]
Ki ([3]; read-out: Ki rA1): 0.0452 ± 0.0075 µM

COC(=O)C1=C(C)NC(C)=C([N+](=O)[O-])C1c1ccccc1C(F)(F)F (stereo not drawn) [Compound 69, reference compound]
Ki ([2]; Table 9, read-out: Ki rA2A): 35.1 ± 10.1 µM

COC(=O)C1=C(C)NC(C)=C([N+](=O)[O-])C1c1ccccc1C(F)(F)F (stereo not drawn) [Compound 70, reference compound]
Ki ([2]; Table 9, read-out: Ki rA2A): 86.3 ± 28.4 µM

O=c1cc(-c2ccccc2)oc2cccc(O)c12 [Compound 25, reference compound]
Ki ([3]; Table 6, [3H]PIA, rat brain membranes, read-out: K2 (rA1)): 2.17 ± 0.06 µM

CCCOc1c2ccoc2cc2oc(/C=C/c3ccccc3)cc(=O)c12 [Compound 21, 4-propyloxy-7-trans-styryl-visnagin]
Ki ([3]; Table 5, [3H]PIA, rat brain membranes, read-out: Ki rA1): 40 ± 3.5 µM

Nc1ccc(CC(=O)Nc2nc3ccc(Cl)cc3c3nc(-c4ccco4)nn23)cc1 [Compound 163]
Ki ([3]; Ki rA1): 0.03 µM
